13 compounds from ChEMBL document CHEMBL1201862, “PubChem BioAssay data set” (2004) can be followed below.

Protein sequences, listed by entry. Tags and fused reporters are not part of them. Lines headed by an entry give the natural chain unless they say otherwise; changes in a name come on top.
UniProt Q13148, whole entry, looked up: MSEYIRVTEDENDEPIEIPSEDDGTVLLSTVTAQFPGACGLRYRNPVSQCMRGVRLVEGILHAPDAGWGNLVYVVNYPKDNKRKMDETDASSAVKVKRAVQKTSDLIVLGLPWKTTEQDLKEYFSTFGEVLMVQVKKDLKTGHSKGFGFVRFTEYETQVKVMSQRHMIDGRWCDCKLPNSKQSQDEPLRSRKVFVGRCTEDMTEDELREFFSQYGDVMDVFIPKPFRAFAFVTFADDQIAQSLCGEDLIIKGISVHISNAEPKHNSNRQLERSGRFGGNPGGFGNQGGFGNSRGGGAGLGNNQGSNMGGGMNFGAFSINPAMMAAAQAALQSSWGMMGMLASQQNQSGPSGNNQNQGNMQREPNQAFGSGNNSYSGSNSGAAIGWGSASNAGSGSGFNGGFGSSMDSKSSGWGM
UniProt O75164: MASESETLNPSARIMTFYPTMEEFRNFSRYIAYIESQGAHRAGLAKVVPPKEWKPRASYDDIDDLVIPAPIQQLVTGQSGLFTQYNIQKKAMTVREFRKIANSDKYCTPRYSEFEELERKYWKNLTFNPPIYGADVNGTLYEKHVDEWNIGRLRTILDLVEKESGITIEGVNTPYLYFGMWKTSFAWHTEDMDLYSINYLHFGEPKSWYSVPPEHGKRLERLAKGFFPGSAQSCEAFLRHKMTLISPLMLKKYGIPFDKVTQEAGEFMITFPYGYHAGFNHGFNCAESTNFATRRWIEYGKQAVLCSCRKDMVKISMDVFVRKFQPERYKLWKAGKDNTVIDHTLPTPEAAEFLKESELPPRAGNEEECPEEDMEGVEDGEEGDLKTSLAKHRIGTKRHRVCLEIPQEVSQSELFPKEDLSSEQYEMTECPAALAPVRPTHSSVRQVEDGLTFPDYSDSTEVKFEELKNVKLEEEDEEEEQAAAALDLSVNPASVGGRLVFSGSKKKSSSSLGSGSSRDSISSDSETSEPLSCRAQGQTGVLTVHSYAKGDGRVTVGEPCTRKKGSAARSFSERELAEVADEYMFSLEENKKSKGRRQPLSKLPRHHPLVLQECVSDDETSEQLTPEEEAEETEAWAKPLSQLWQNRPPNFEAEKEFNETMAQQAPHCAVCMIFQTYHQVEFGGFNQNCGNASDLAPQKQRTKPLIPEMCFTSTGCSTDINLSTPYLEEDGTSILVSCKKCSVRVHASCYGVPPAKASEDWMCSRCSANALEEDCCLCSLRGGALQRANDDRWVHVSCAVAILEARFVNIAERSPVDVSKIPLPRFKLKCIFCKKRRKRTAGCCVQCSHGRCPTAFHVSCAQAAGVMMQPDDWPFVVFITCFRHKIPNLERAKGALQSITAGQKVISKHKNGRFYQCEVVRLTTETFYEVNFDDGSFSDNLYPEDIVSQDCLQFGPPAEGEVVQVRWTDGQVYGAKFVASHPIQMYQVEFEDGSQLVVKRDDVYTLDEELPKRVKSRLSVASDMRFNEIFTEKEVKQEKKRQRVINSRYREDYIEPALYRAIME
UniProt P83916, whole entry, looked up: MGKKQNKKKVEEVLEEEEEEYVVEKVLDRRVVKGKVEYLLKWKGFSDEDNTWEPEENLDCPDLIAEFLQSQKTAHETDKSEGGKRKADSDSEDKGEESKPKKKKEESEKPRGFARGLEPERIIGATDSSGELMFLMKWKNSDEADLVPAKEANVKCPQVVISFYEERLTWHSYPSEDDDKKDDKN
UniProt Q9UBT6: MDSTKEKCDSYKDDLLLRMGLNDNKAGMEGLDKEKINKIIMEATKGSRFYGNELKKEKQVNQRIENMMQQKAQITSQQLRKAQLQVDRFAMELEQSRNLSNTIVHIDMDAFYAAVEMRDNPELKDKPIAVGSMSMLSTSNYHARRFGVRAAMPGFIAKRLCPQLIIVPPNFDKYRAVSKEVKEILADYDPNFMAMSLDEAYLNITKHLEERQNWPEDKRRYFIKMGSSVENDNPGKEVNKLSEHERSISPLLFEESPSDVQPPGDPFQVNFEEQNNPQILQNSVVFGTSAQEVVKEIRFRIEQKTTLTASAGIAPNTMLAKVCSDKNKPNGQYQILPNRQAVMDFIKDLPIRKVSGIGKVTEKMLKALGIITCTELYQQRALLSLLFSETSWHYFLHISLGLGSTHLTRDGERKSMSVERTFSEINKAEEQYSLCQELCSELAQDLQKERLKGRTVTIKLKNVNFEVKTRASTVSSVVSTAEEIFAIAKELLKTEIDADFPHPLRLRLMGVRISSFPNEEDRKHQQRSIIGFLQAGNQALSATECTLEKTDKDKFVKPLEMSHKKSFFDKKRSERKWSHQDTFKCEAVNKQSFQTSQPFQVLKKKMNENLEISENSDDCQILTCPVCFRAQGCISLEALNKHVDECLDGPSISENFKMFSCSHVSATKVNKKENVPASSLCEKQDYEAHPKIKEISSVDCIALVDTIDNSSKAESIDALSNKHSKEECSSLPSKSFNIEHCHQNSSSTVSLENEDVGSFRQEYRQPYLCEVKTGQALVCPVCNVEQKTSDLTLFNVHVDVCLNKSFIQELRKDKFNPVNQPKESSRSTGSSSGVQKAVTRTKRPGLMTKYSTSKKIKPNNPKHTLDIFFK
UniProt Q9Y253: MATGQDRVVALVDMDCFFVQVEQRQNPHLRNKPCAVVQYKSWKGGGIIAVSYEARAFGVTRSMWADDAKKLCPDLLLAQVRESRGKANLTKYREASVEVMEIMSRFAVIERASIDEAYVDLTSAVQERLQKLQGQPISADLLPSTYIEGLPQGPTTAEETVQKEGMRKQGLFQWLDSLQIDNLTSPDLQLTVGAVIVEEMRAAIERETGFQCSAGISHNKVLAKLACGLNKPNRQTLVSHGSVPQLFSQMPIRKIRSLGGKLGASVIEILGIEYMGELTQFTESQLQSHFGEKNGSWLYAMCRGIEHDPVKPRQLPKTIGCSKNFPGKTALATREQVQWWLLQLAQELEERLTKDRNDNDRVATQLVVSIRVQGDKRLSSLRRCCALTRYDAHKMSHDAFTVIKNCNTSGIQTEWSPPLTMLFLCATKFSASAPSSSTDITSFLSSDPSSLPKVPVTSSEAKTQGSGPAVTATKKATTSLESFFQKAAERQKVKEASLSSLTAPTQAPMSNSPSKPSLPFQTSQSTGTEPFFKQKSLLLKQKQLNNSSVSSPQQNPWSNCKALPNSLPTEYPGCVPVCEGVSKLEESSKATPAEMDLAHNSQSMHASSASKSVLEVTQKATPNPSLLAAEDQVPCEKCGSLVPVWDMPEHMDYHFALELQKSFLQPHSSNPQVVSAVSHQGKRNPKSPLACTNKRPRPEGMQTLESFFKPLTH
UniProt O94925: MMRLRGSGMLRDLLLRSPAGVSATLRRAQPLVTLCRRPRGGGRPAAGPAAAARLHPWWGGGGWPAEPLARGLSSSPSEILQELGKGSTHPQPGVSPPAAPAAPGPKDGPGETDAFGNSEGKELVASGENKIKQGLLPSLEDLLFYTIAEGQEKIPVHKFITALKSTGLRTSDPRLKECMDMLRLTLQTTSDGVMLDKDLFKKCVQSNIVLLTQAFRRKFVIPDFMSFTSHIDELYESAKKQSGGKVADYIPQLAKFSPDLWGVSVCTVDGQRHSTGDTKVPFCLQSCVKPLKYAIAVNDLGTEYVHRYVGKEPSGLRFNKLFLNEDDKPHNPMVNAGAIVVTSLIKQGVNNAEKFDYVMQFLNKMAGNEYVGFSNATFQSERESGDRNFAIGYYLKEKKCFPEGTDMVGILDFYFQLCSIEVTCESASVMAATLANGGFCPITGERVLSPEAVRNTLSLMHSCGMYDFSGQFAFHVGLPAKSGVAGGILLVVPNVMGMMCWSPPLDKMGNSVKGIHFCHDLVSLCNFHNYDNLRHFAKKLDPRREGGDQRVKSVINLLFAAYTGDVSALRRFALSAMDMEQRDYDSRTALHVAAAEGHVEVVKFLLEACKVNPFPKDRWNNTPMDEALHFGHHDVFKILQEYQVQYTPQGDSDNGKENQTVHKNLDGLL
UniProt Q14974, whole entry, looked up: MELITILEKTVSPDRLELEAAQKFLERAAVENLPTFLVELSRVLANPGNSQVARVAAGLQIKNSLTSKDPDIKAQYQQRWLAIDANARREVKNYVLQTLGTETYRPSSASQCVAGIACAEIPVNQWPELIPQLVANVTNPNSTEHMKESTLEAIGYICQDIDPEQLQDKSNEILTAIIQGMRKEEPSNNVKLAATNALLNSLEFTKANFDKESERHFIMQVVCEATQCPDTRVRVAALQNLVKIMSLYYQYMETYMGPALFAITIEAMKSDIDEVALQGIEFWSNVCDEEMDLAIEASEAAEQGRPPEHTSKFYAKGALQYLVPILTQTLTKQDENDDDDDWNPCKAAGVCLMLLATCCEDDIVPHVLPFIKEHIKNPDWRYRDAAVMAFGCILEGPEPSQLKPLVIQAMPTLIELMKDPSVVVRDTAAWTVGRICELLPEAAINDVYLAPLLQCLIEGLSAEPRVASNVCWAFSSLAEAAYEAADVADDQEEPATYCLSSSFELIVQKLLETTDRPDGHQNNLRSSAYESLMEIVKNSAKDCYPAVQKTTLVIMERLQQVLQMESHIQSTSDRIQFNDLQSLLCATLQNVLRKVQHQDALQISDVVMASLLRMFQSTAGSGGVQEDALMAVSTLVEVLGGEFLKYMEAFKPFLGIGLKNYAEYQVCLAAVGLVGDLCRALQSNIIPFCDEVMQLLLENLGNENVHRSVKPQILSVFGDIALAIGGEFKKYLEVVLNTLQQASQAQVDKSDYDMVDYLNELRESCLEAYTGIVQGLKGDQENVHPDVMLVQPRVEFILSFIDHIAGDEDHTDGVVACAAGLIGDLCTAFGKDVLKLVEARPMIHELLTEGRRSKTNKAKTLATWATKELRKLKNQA
UniProt Q03431: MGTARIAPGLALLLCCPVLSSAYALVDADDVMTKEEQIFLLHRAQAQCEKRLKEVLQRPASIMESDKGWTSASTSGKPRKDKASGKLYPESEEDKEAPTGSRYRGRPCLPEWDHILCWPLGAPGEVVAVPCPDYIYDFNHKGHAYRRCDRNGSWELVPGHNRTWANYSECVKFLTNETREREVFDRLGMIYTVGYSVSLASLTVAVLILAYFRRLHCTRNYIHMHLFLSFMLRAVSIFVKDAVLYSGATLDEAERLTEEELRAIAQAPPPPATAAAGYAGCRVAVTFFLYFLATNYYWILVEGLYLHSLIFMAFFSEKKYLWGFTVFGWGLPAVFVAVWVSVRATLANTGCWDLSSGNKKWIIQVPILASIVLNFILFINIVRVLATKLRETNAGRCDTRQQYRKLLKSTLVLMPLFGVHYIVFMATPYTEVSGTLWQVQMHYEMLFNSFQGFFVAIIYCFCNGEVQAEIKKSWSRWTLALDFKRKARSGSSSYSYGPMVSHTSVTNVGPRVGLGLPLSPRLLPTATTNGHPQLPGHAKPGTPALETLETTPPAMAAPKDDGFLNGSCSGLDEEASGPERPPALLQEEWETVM
UniProt P02791: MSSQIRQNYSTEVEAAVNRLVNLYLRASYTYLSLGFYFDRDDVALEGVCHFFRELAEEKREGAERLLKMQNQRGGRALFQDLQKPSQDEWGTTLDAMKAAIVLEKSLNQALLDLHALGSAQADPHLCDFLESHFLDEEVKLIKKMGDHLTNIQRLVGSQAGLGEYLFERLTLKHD
UniProt Q9NUW8, whole entry, looked up: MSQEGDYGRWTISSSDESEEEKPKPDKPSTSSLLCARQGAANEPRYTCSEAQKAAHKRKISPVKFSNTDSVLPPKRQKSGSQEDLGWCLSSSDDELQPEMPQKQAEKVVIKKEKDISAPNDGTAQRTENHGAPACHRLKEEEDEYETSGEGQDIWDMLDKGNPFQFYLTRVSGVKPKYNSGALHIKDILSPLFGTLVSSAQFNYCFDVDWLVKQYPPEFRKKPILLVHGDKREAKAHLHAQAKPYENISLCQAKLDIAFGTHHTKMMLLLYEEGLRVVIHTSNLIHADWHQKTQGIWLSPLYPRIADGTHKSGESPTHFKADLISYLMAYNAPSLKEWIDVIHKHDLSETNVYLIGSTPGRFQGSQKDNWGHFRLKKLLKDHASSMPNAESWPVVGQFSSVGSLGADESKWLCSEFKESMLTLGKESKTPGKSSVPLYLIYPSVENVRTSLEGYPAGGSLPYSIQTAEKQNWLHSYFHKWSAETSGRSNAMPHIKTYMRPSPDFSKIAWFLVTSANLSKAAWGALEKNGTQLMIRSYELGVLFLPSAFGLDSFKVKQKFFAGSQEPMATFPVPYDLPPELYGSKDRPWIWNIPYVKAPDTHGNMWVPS
UniProt P11473: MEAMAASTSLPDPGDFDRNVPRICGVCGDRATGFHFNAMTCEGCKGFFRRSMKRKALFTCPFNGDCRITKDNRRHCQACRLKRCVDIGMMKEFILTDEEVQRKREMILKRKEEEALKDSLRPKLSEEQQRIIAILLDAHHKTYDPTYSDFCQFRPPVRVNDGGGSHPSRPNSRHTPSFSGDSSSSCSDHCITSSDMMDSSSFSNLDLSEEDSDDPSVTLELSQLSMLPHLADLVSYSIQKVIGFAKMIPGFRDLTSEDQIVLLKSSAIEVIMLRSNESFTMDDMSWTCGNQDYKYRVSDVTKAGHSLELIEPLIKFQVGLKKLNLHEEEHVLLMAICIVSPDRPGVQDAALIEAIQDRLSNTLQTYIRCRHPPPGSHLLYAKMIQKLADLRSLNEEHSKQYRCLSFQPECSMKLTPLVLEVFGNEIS

Assay [1] concerns microRNA 21. Put plainly: qHTS Assay for Modulators of miRNAs and/or Activators of miR-21. Particulars: Homo sapiens. Type of assay: functional. In general terms: qHTS replaces the single test concentration by a dilution series.
Assay [2] has as its system Drosophila. Put plainly: qHTS Assay for Lipid Storage Modulators in Drosophila S3 Cells. Type of assay: functional.
Assay [3] has as its target TAR DNA-binding protein 43 (Homo sapiens) (UniProt Q13148). Put plainly: qHTS of TDP-43 Inhibitors. It is filed as functional.
Assay [4] relates to HepG2. Put plainly: qHTS for Inhibitors of TGF-b: Cytotox Counterscreen. [Related pubchem assays (depositor defined):AID588855, AID588860]. Particulars: Homo sapiens. Type of assay: functional.
The target of assay [5] is Lysine-specific demethylase 4A (Homo sapiens) (UniProt O75164). Put plainly: qHTS Assay for Inhibitors of JMJD2A-Tudor Domain. [Related pubchem assays (depositor defined):AID504402]. It is filed as functional.
Assay [6] concerns the target Chromobox protein homolog 1 (Homo sapiens) (UniProt P83916). Put plainly: HTS for Inhibitors of HP1-beta Chromodomain Interactions with Methylated Histone Tails. [Related pubchem assays (depositor defined):AID488962]. Type of assay: functional.
Assay [7] has as its target DNA polymerase kappa (Homo sapiens) (UniProt Q9UBT6). Put plainly: qHTS for Inhibitors of Polymerase Kappa. [Related pubchem assays (depositor defined):AID588638]. Type of assay: functional.
In assay [8] the target is DNA polymerase eta (Homo sapiens) (UniProt Q9Y253). Put plainly: qHTS for Inhibitors of Polymerase Eta. [Related pubchem assays (depositor defined):AID588636]. It is filed as functional.
Assay [9] has as its target Glutaminase kidney isoform, mitochondrial (Homo sapiens) (UniProt O94925). Put plainly: qHTS for Inhibitors of Glutaminase (GLS). It is filed as functional.
The target in assay [10] is T1, DNA polymerase iota (Homo sapiens) (UniProt Q9UNA4).
T1 sequence (whole entry): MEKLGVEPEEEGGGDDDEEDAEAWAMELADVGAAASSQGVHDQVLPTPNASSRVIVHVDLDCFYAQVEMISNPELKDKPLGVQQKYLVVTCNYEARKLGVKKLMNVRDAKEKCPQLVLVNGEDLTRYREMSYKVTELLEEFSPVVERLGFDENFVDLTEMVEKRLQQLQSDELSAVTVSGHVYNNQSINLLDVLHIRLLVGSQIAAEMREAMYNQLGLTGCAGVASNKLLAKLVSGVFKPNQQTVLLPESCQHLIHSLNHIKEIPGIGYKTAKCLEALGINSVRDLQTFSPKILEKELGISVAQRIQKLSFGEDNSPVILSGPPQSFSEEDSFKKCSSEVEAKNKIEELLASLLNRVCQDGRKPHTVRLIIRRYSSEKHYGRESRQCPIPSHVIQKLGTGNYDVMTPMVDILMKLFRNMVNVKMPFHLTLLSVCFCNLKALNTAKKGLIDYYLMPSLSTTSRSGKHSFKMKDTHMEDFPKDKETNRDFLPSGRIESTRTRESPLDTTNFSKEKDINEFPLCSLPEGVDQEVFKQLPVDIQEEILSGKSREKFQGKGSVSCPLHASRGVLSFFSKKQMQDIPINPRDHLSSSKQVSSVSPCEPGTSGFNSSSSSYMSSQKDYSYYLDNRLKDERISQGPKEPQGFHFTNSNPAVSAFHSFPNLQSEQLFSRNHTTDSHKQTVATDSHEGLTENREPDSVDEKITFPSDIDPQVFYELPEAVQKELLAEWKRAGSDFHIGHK
Put plainly: qHTS for Inhibitors of Polymerase Iota. [Related pubchem assays (depositor defined):AID588623]. Type of assay: functional.

For assay [11], the target named is GTP-binding nuclear protein Ran/Importin subunit beta-1/Snurportin-1 (Homo sapiens) (UniProt P62826+Q14974+O95149). Put plainly: qHTS Assay for Inhibitors of RanGTP induced Rango (Ran-regulated importin-beta cargo) - Importin beta complex dissociation. [Related pubchem assays (depositor defined):AID540262]. It is filed as functional.
For assay [12], the target named is T2, Histone-lysine N-methyltransferase EHMT2 (Homo sapiens) (UniProt Q96KQ7).
T2 sequence (whole entry): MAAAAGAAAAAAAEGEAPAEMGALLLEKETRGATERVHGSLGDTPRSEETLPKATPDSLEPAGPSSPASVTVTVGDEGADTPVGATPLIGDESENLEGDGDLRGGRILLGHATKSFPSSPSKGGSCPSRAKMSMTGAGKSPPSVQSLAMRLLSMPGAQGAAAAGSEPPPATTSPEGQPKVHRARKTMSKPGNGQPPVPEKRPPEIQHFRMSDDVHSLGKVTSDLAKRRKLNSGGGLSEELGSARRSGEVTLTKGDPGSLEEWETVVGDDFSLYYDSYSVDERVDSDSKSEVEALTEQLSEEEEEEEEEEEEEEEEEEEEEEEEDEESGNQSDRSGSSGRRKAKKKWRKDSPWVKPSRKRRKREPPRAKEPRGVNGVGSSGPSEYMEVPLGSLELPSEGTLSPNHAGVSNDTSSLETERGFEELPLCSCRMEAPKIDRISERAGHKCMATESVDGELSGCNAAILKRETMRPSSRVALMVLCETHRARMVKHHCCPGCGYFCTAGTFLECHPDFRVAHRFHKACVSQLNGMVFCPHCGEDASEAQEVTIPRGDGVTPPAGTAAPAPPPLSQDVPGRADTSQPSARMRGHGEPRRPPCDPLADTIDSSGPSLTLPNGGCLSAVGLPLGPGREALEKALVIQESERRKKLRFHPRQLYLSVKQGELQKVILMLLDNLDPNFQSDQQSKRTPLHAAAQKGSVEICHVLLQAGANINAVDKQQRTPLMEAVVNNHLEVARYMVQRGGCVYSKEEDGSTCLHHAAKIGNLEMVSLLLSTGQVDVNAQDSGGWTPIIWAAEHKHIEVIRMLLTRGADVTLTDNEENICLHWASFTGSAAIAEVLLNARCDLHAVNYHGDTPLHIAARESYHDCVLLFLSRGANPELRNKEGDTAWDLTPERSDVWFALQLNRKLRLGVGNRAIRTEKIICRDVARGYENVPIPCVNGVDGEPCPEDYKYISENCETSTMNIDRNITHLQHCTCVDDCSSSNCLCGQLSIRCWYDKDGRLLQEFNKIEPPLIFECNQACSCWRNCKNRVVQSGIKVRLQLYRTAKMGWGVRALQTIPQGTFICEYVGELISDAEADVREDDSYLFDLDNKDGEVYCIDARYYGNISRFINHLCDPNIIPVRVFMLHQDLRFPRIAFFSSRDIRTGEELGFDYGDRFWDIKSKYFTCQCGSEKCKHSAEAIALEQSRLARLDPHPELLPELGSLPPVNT
Put plainly: qHTS Assay for Inhibitors of Histone Lysine Methyltransferase G9a. [Related pubchem assays (depositor defined):AID504404]. It is filed as functional.

Assay [13] deals with Parathyroid hormone/parathyroid hormone-related peptide receptor (Homo sapiens) (UniProt Q03431). Put plainly: qHTS of PTHR Inhibitors: Primary Screen. Type of assay: functional.
Assay [14] addresses Geminin (Homo sapiens) (UniProt O75496). Put plainly: A quantitative high throughput screen for small molecules that induce DNA re-replication in SW480 colon adenocarcinoma cells. It is filed as functional, cell-based.
Assay [15] has as its target Ferritin light chain (Equus caballus) (UniProt P02791).
Assay [16] concerns the target T3, Thioredoxin reductase 1, cytoplasmic (Rattus norvegicus) (UniProt O89049).
T3 sequence (whole entry): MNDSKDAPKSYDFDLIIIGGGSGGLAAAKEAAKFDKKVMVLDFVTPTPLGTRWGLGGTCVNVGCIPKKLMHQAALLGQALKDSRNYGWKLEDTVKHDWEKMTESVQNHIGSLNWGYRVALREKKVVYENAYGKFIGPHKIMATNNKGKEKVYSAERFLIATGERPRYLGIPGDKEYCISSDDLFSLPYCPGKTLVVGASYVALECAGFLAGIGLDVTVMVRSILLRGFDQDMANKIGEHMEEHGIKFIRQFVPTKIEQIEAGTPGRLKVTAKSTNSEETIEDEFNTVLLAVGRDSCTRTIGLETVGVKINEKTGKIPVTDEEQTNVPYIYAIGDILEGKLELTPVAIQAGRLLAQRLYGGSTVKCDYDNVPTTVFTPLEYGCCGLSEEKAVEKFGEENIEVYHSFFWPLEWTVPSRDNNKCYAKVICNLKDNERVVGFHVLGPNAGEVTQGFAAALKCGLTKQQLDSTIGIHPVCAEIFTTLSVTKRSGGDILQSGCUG
Put plainly: qHTS Assay for Inhibitors of Mammalian Selenoprotein Thioredoxin Reductase 1 (TrxR1): qHTS. [Related pubchem assays (depositor defined):AID488771]. Type of assay: functional.

Assay [17] concerns the target Tyrosyl-DNA phosphodiesterase 1 (Homo sapiens) (UniProt Q9NUW8). Put plainly: qHTS for Inhibitors of human tyrosyl-DNA phosphodiesterase 1 (TDP1): qHTS in cells in absence of CPT. It is filed as functional.
The target is the same in assay [18]. Put plainly: qHTS for Inhibitors of human tyrosyl-DNA phosphodiesterase 1 (TDP1): qHTS in cells in presence of CPT. It is filed as functional.
For assay [19], the target named is Vitamin D3 receptor (Homo sapiens) (UniProt P11473). Put plainly: Inhibitors of the vitamin D receptor (VDR): qHTS. [Related pubchem assays (depositor defined):AID504855]. It is filed as functional.

Each structure is given as a SMILES string. The list shows a part of the results, in another mix than the full data. Only a part of the results of these assays is listed, not drawn at random. Some of the results follow. Activity calls are given as the source filed them. Unless noted, no cut-off for these calls is given here.

Regarding `Cc1ccc2nc3c(c(C)c2c1)CC(C(Cl)Cl)S3` (stereo not drawn), the Potency entry in assay [1] is “inactive”.

`NC(=NO)c1c(N)no[n+]1[O-]`: in assay [2], the Potency was active: 14.6 µM. Moreover, in assay [3], the Potency result was “inactive”.

For `O=C(CBr)c1ccc(Cl)cc1`, in [4], the Potency entry was “inactive”.

Regarding `O=C1C(O)=C([N+](=O)[O-])C(=O)C(O)=C1[N+](=O)[O-]`, the Potency in assay [5] was active: 10 µM; in assay [6], active: 25.1 µM; in assay [7], active: 50.1 µM; in assay [8], active: 3.98 µM; in assay [9], active: 5.01 µM.

Turning to `O=P1(N(CCCl)CCCl)SCCCS1`, the Potency entry in assay [10] was “inactive”.

Turning to `NC(=O)c1cc([N+](=O)[O-])cc([N+](=O)[O-])c1N`, the Potency result in assay [11] is “inactive”.

For `O=[N+]([O-])c1cc([N+](=O)[O-])c(OC2CCCCC2O)c([N+](=O)[O-])c1` (stereo not drawn), the Potency in assay [12] was active: 44.7 µM. For the same compound, in [13], the Potency result is “inactive”.

As to `CC1=NCCc2c1[nH]c1ccccc21`, the Potency result in assay [4], in assay [14] and in [15] was “inactive” in each case.

Consider `ClCCSc1nnc(-c2cccnc2)o1`, for which the Potency entry in assay [1] was “inactive”.

As for `ClCCN(CCCl)c1ccc(C=C2C=CC=C2)cc1`, the figures for the Potency in assay [16], in [17] and in assay [18] were active: 44.7 µM, active: 1.41 µM and active: 1.26 µM, respectively.

For `O=C(NC1CCS(=O)(=O)C1)NP(=S)(Oc1ccccc1)Oc1ccccc1` (stereo not drawn), in assay [19], the Potency entry is “inactive”.

For the compound `Nc1cccc2c([As](=O)(O)O)cccc12`, the Potency result in assay [11] was “inactive”.

For the compound `O=P1(N(CCCl)CCCl)OCCCS1` (stereo not drawn), the Potency result in [19] was “inactive”.
